Test results from US10919885B2, “Compounds and uses thereof” (Yumanity Therapeutics, Inc., priority 2018, dated 2021).

Protein sequences, listed by entry. Tags and fused reporters are not part of them. Lines headed by an entry give the natural chain unless they say otherwise; changes in a name come on top.
UniProt Q86SK9: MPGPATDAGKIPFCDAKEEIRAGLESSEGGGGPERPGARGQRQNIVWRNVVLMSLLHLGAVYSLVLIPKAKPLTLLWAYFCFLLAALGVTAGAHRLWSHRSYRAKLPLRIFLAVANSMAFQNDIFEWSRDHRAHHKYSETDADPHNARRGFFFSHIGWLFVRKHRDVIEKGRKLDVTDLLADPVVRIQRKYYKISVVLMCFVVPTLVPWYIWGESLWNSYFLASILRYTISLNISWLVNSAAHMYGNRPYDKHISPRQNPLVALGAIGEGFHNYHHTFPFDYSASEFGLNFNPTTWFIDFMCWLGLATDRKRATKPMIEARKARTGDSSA
UniProt O00767: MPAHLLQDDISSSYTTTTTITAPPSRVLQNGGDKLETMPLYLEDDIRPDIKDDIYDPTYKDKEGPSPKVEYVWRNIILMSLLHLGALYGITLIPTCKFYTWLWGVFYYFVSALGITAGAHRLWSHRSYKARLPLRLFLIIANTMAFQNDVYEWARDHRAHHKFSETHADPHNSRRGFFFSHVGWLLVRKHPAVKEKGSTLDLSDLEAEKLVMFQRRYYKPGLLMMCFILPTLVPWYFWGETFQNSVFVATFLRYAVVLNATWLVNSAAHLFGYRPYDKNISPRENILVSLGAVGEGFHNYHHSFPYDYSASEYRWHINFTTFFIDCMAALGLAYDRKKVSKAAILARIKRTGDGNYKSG

Tests used:
[1] = molecular target: human SCD5 (Homo sapiens (Human), UniProt Q86SK9); assay: Yeast growth assay, strain expressing human SCD5 as the sole desaturase (reduced growth as surrogate for SCD inhibition); type: cell-based; settings: yeast with OLE1 deleted expressing human SCD5 from a plasmid; growth read as OD600 after 40 h at 30° C.; top drug concentration 33.3 μM
Description: (§1) Strains expressing SCD1 or SCD5 as the sole desaturase, the human SCD1 and SCD5 genes were used to evaluate inhibition of SCD1/SCD5 using reduced growth as a surrogate for SCD inhibition. These yeast strains express human SCD1 or SCD5 from a plasmid harbored in a strain in which the yeast OLE1 gene is deleted.
(§2) All compound profiling experiments were performed using the same basic protocol. Yeast were cultured using standard techniques in complete synthetic media lacking uracil and containing yeast nitrogen base supplemented with 2% (w/v) glucose (SD-Ura) Starter cultures were inoculated in 3 mL SD-Ura media containing 0.01% tween and 0.2 mM palmitoleic and oleic acid. Cultures were incubated overnight in a 30° C. shaker incubator (225 rpm). Saturated morning cultures were centrifuged, washed in SD-Ura media lacking TWEEN-20 and fatty acids, and then diluted 1:20 in fresh SD-Ura media also lacking TWEEN-20 and fatty acids.
Compound administration was performed in two separate steps. First, 15 μL of SD-Ura was dispensed into clear 384-well assay plates using a MULTIDROP™ Combi reagent dispenser. […] The cultures described above were centrifuged and washed with media lacking TWEEN-20 or oleic and palmitoleic acids.
(§3) After yeast delivery, assay plates were incubated under humidified conditions at 30° C. for 40 h. Yeast growth was monitored by reading the OD600 of each well using a microplate reader (Perkin Elmer EnVision™).

[2] = molecular target: human SCD1 (Homo sapiens (Human), UniProt O00767); assay: Yeast growth assay, strain expressing human SCD1 as the sole desaturase (reduced growth as surrogate for SCD inhibition); type: cell-based; settings: yeast with OLE1 deleted expressing human SCD1 from a plasmid; growth read as OD600 after 40 h at 30° C.; top drug concentration 33.3 μM
Description: as §1, §2
Compound administration was performed in two separate steps. First, 15 μL of SD-Ura was dispensed into clear 384-well assay plates using a MULTIDROP™ Combi reagent dispenser. […]
as §3

In the case of `O=C(Nc1cnn(Cc2cccc(F)c2)c1)c1cc(-c2cncs2)on1` [Compound 69, N-(1-(3-fluorobenzyl)-1H-pyrazol-4-yl)-5-(thiazol-5-yl)isoxazole-3-carboxamide], the IC50 [1] is reported as 7900 nM.

In the case of `O=C(Nc1cnn(Cc2cccc(F)c2)c1)c1cc(N2CCOCC2)on1` [Compound 101, N-(1-(3-fluorobenzyl)-1H-pyrazol-4-yl)-5-morpholinoisoxazole-3-carboxamide], the IC50 [1] is reported as 1200 nM.

`O=C(Nc1cnn(Cc2cccc(F)c2)c1)c1cc(Cl)on1` [Compound 105, 5-chloro-N-(1-(3-fluorobenzyl)-1H-pyrazol-4-yl)isoxazole-3-carboxamide] showed an IC50 [1] of 9100 nM.

With `CC(C)c1cc(C(=O)Nc2cnn(Cc3ccccc3)c2)on1` [Compound 158, N-(1-benzyl-1H-pyrazol-4-yl)-3-isopropylisoxazole-5-carboxamide] the IC50 [1] was 1800 nM.

`O=C(Nc1cnn(Cc2cnccc2C(F)(F)F)c1)c1cc(-c2ccccc2)on1` [Compound 160, 5-phenyl-N-(1-((4-(trifluoromethyl)pyridin-3-yl)methyl)-1H-pyrazol-4-yl)isoxazole-3-carboxamide] gave an IC50 [1] of 2300 nM.

Compound `O=C(Nc1cnn(Cc2ccccc2)c1)c1cc(Cl)on1` [Compound 180] has an IC50 [1] of over 45000 nM.

With `O=C(Nc1cnn(Cc2ccccc2)c1)c1cc(N2CCNCC2)on1` [Compound 190] the IC50 [1] was over 45000 nM.

`O=C(Nc1cnn(Cc2cnccc2C(F)(F)F)c1)c1noc2c1CCCC2` [Compound 194, N-(1-{[4-(trifluoromethyl)pyridin-3-yl]methyl}-1H-pyrazol-4-yl)-4,5,6,7-tetrahydro-1,2-benzoxazole-3-carboxamide] gave an IC50 [1] of 696 nM.

For `O=C(Nc1cnn(Cc2cnccc2C(F)(F)F)c1)c1cc(-c2ccco2)on1` [Compound 198, 5-(furan-2-yl)-N-(1-{[4-(trifluoromethyl)pyridin-3-yl]methyl}-1H-pyrazol-4-yl)-1,2-oxazole-3-carboxamide], the IC50 [1] was 2300 nM.

Compound `O=C(Nc1cnn(Cc2cnccc2C(F)(F)F)c1)c1cc(-c2ccc3c(c2)OCO3)on1` [Compound 199, 5-(2H-1,3-benzodioxol-5-yl)-N-(1-{[4-(trifluoromethyl)pyridin-3-yl]methyl}-1H-pyrazol-4-yl)-1,2-oxazole-3-carboxamide] has an IC50 [1] of 6000 nM.

`O=C(Nc1cnn(Cc2cnccc2C(F)(F)F)c1)c1cc(-c2ccncn2)on1` [Compound 200, 5-(pyrimidin-4-yl)-N-(1-((4-(trifluoromethyl)pyridin-3-yl)methyl)-1H-pyrazol-4-yl)isoxazole-3-carboxamide] gave an IC50 [1] of 6300 nM.

Compound `CN(C)c1cc(C(=O)Nc2cnn(Cc3ccccc3)c2)no1` [Compound 203, N-(1-benzyl-1H-pyrazol-4-yl)-5-(dimethylamino)isoxazole-3-carboxamide] has an IC50 [2] of 25 nM and an IC50 [1] of 2500 nM.

In the case of `O=C(c1cc(-c2ccccc2)on1)N1CC=C(c2cc(F)ccc2Cl)CC1` [Compound 305], the IC50 [1] is reported as 90 nM.

`O=C(c1cc(-c2ccc3c(c2)OCO3)on1)N1CCC(c2cccc(F)c2)CC1` [Compound 309, [5-(1,3-benzodioxol-5-yl)isoxazol-3-yl]-[4-(3-fluorophenyl)-1-piperidyl]methanone] showed an IC50 [1] of 1010 nM.
